# In patent publication US20170007610A1, “NOVEL HETEROBICYCLIC COMPOUNDS AS KAPPA OPIOID AGONISTS” (priority 2014, published 2017):
# Test system: ICR mice
# Experiment: Assessment of CNS effects (spontaneous locomotion, sedation, catalepsy), threshold dose
# Assay type: in vivo
# Details: lowest dose which shows pharmacodynamic effect (locomotion, sedation, catalepsy), oral or i.v.
# Description: All the animal experiments were carried out in ICR mice, bred in-house. Animals were housed in groups of 6 animals per cage, for a week, in order to habituate them to vivarium conditions (25±4° C., 60-65% relative humidity, 12:12 h light: dark cycle, with lights on at 7.30 am). All the animal experiments were carried out according to the internationally valid guidelines following approval by the ‘Zydus Research Center animal ethical committee’.
# Assessment of CNS Effects of Test Compounds
# Test compounds were dissolved in normal saline injected by oral or i.v., routes in ICR mice tail vein. […] The dose is scaled down or up if pharmacodynamic effect is present or absent respectively.
substance,measurement,value
"N-((S)-2-((S)-3-hydroxypyrrolidin-1-yl)-1-phenylethyl)- N-methyl-2-((8-sulfonamido)-1,2,3,4-tetrahydroquinolin- 5-yloxy)acetamide [Compound 37]",CNS TD,60 mg/kg
